Source: BindingDB's records for 10841791
pKi: −log10 of the molar value.

Amino acid sequences for entries named in this document (tags omitted). A change or cut given only in a name is not applied to a line headed by its entry.
UniProt P41144: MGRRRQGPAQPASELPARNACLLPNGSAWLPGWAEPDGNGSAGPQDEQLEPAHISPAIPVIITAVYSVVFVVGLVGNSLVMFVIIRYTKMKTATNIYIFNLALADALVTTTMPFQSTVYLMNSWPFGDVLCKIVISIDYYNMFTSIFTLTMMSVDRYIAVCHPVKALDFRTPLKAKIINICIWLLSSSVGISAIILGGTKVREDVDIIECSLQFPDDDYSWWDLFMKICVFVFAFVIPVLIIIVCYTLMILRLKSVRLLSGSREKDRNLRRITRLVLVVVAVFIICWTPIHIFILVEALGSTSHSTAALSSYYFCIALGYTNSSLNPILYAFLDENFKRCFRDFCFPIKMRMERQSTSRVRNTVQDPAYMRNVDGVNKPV

Biological target: Kappa-type opioid receptor (Cavia porcellus, UniProt P41144)
Experiment: Inhibition of [3H]U-69593 binding to Opioid receptor kappa 1 in guinea pig brain homogenates

In the case of CN(C(=O)Cc1ccc(Cl)c(Cl)c1)[C@@H]1CCCC[C@H]1N1CCCC1, the pKi was 9.05.
